Values quoted from earlier work, collected in patent US20110217355A1, “CONTACT LENS BASED BIOACTIVE AGENT DELIVERY SYSTEM” (priority 2007, published 2011).

Test system: ocular surface
Details: cited from earlier work

POE (20) stearyl ether [Brij 78]
toxicity in ocular studies (concentrations as large as 2% (w/w)): negligible toxicity | toxic effects on the ocular surface (rabbits, 0.1 ml of 0.2% (20000 μg/ml) eye drops): does not cause toxic effects
